Reference: PubChem BioAssay (NCI)
Some results for these compounds are left out of this collection, so the calls shown say nothing about other tests.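 Results reflect a 48-hour exposure of cells in 96-well plates to compound at five concentrations. GI50 marks 50% less growth. The concentration for full growth arrest is given as TGI.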

What was measured:
Assay in all cases: NCI-60 cell line screen, 48 h
MDA-MB-231 breast = system: MDA-MB-231 breast
COLO 205 colon = system: COLO 205 colon
A549 NSCLC = system: A549 NSCLC
UACC-257 melanoma = system: UACC-257 melanoma
OVCAR-8 ovarian = system: OVCAR-8 ovarian
MDA-N = system: MDA-N
SF-295 CNS = system: SF-295 CNS
SNB-19 CNS = system: SNB-19 CNS
SF-268 CNS = system: SF-268 CNS
HOP-62 NSCLC = system: HOP-62 NSCLC
K-562 leukemia = system: K-562 leukemia
HCT-15 colon = system: HCT-15 colon
KM12 colon = system: KM12 colon
RPMI-8226 leukemia = system: RPMI-8226 leukemia
NCI/ADR-RES ovarian = system: NCI/ADR-RES ovarian
MOLT-4 leukemia = system: MOLT-4 leukemia
HS 578T breast = system: HS 578T breast
NCI-H226 lung = system: NCI-H226 lung
T-47D breast = system: T-47D breast
HCC-2998 colon = system: HCC-2998 colon
SNB-75 CNS = system: SNB-75 CNS
OVCAR-4 ovarian = system: OVCAR-4 ovarian
SN12C renal = system: SN12C renal
HT29 colon = system: HT29 colon
DU-145 prostate = system: DU-145 prostate
SK-MEL-2 melanoma = system: SK-MEL-2 melanoma
TK-10 renal = system: TK-10 renal
UACC-62 melanoma = system: UACC-62 melanoma
HCT-116 colon = system: HCT-116 colon
SK-MEL-28 melanoma = system: SK-MEL-28 melanoma
PC-3 prostate = system: PC-3 prostate
A498 renal = system: A498 renal
NCI-H23 lung = system: NCI-H23 lung
U251 CNS = system: U251 CNS
CAKI-1 renal = system: CAKI-1 renal
SR leukemia = system: SR leukemia
IGROV1 ovarian = system: IGROV1 ovarian
SF-539 CNS = system: SF-539 CNS
M14 melanoma = system: M14 melanoma
RXF 393 renal = system: RXF 393 renal
LOX IMVI melanoma = system: LOX IMVI melanoma
MCF7 breast = system: MCF7 breast
EKVX NSCLC = system: EKVX NSCLC
NCI-H460 lung = system: NCI-H460 lung
OVCAR-5 ovarian = system: OVCAR-5 ovarian
ACHN renal = system: ACHN renal
HOP-92 NSCLC = system: HOP-92 NSCLC
SK-MEL-5 melanoma = system: SK-MEL-5 melanoma
CCRF-CEM leukemia = system: CCRF-CEM leukemia
BT-549 breast = system: BT-549 breast
HL-60(TB) leukemia = system: HL-60(TB) leukemia
UO-31 renal = system: UO-31 renal
786-0 renal = system: 786-0 renal
SK-OV-3 ovarian = system: SK-OV-3 ovarian
MDA-MB-435 = system: MDA-MB-435
OVCAR-3 ovarian = system: OVCAR-3 ovarian
SW-620 colon = system: SW-620 colon
MALME-3M melanoma = system: MALME-3M melanoma
NCI-H522 lung = system: NCI-H522 lung

CC(C)/C=C\C(O)(C(=O)OC1CN2CCC1CC2)C1CCCC1 (stereo unspecified)
GI50 (MDA-MB-231 breast): > 100 µM | TGI (MDA-MB-231 breast): > 100 µM | GI50 (COLO 205 colon): 80.2 µM | TGI (COLO 205 colon): > 100 µM | GI50 (A549 NSCLC): > 100 µM | TGI (A549 NSCLC): > 100 µM | GI50 (UACC-257 melanoma): 66.6 µM | TGI (UACC-257 melanoma): > 100 µM | GI50 (OVCAR-8 ovarian): > 100 µM | TGI (OVCAR-8 ovarian): > 100 µM | GI50 (MDA-N): > 100 µM | TGI (MDA-N): > 100 µM | GI50 (SF-295 CNS): 62.2 µM | TGI (SF-295 CNS): > 100 µM | GI50 (SNB-19 CNS): > 100 µM | TGI (SNB-19 CNS): > 100 µM | GI50 (SF-268 CNS): > 100 µM | TGI (SF-268 CNS): > 100 µM | GI50 (HOP-62 NSCLC): > 100 µM | TGI (HOP-62 NSCLC): > 100 µM | GI50 (K-562 leukemia): 59.4 µM | TGI (K-562 leukemia): > 100 µM | GI50 (HCT-15 colon): > 100 µM | TGI (HCT-15 colon): > 100 µM | GI50 (KM12 colon): > 100 µM | TGI (KM12 colon): > 100 µM | GI50 (RPMI-8226 leukemia): > 100 µM | TGI (RPMI-8226 leukemia): > 100 µM | GI50 (NCI/ADR-RES ovarian): > 100 µM | TGI (NCI/ADR-RES ovarian): > 100 µM | GI50 (MOLT-4 leukemia): > 100 µM | TGI (MOLT-4 leukemia): > 100 µM | GI50 (HS 578T breast): > 100 µM | TGI (HS 578T breast): > 100 µM | GI50 (NCI-H226 lung): > 100 µM | TGI (NCI-H226 lung): > 100 µM | GI50 (T-47D breast): > 100 µM | TGI (T-47D breast): > 100 µM | GI50 (HCC-2998 colon): 83.3 µM | TGI (HCC-2998 colon): > 100 µM | GI50 (SNB-75 CNS): 40.1 µM | TGI (SNB-75 CNS): > 100 µM | GI50 (OVCAR-4 ovarian): > 100 µM | TGI (OVCAR-4 ovarian): > 100 µM | GI50 (SN12C renal): > 100 µM | TGI (SN12C renal): > 100 µM | GI50 (HT29 colon): 45 µM | TGI (HT29 colon): > 100 µM | GI50 (DU-145 prostate): > 100 µM | TGI (DU-145 prostate): > 100 µM | GI50 (SK-MEL-2 melanoma): > 100 µM | TGI (SK-MEL-2 melanoma): > 100 µM | GI50 (TK-10 renal): > 100 µM | TGI (TK-10 renal): > 100 µM | GI50 (UACC-62 melanoma): 76 µM | TGI (UACC-62 melanoma): > 100 µM | GI50 (HCT-116 colon): > 100 µM | TGI (HCT-116 colon): > 100 µM | GI50 (SK-MEL-28 melanoma): > 100 µM | TGI (SK-MEL-28 melanoma): > 100 µM | GI50 (PC-3 prostate): 85 µM | TGI (PC-3 prostate): > 100 µM | GI50 (A498 renal): > 100 µM | TGI (A498 renal): > 100 µM | GI50 (NCI-H23 lung): > 100 µM | TGI (NCI-H23 lung): > 100 µM | GI50 (U251 CNS): > 100 µM | TGI (U251 CNS): > 100 µM | GI50 (CAKI-1 renal): > 100 µM | TGI (CAKI-1 renal): > 100 µM | GI50 (SR leukemia): > 100 µM | TGI (SR leukemia): > 100 µM | GI50 (IGROV1 ovarian): > 100 µM | TGI (IGROV1 ovarian): > 100 µM | GI50 (SF-539 CNS): > 100 µM | TGI (SF-539 CNS): > 100 µM | GI50 (M14 melanoma): > 100 µM | TGI (M14 melanoma): > 100 µM | GI50 (RXF 393 renal): > 100 µM | TGI (RXF 393 renal): > 100 µM | GI50 (LOX IMVI melanoma): > 100 µM | TGI (LOX IMVI melanoma): > 100 µM | GI50 (MCF7 breast): > 100 µM | TGI (MCF7 breast): > 100 µM | GI50 (EKVX NSCLC): > 100 µM | TGI (EKVX NSCLC): > 100 µM | GI50 (NCI-H460 lung): > 100 µM | TGI (NCI-H460 lung): > 100 µM | GI50 (OVCAR-5 ovarian): > 100 µM | TGI (OVCAR-5 ovarian): > 100 µM | GI50 (ACHN renal): > 100 µM | TGI (ACHN renal): > 100 µM | GI50 (HOP-92 NSCLC): > 100 µM | TGI (HOP-92 NSCLC): > 100 µM | GI50 (SK-MEL-5 melanoma): 84.1 µM | TGI (SK-MEL-5 melanoma): > 100 µM | GI50 (CCRF-CEM leukemia): > 100 µM | TGI (CCRF-CEM leukemia): > 100 µM | GI50 (BT-549 breast): > 100 µM | TGI (BT-549 breast): > 100 µM | GI50 (HL-60(TB) leukemia): > 100 µM | TGI (HL-60(TB) leukemia): > 100 µM | GI50 (UO-31 renal): 78.1 µM | TGI (UO-31 renal): > 100 µM | GI50 (786-0 renal): > 100 µM | TGI (786-0 renal): > 100 µM | GI50 (SK-OV-3 ovarian): > 100 µM | TGI (SK-OV-3 ovarian): > 100 µM | GI50 (MDA-MB-435): > 100 µM | TGI (MDA-MB-435): > 100 µM | GI50 (OVCAR-3 ovarian): > 100 µM | TGI (OVCAR-3 ovarian): > 100 µM | GI50 (SW-620 colon): > 100 µM | TGI (SW-620 colon): > 100 µM | GI50 (MALME-3M melanoma): > 100 µM | TGI (MALME-3M melanoma): > 100 µM

CN1CCC(OC(=O)C(O)(c2ccccc2)c2ccns2)CC1 (stereo unspecified)
TGI (MDA-MB-231 breast): > 100 µM | TGI (COLO 205 colon): > 100 µM | TGI (A549 NSCLC): > 100 µM | TGI (UACC-257 melanoma): > 100 µM | TGI (OVCAR-8 ovarian): > 100 µM | TGI (MDA-N): > 100 µM | TGI (SF-295 CNS): > 100 µM | TGI (SNB-19 CNS): > 100 µM | TGI (SF-268 CNS): > 100 µM | TGI (HOP-62 NSCLC): > 100 µM | TGI (K-562 leukemia): > 100 µM | TGI (HCT-15 colon): > 100 µM | TGI (KM12 colon): > 100 µM | TGI (RPMI-8226 leukemia): > 100 µM | TGI (NCI/ADR-RES ovarian): > 100 µM | TGI (NCI-H226 lung): > 100 µM | TGI (T-47D breast): > 100 µM | TGI (NCI-H522 lung): > 100 µM | TGI (HCC-2998 colon): > 100 µM | TGI (SNB-75 CNS): > 100 µM | TGI (SN12C renal): > 100 µM | TGI (HT29 colon): > 100 µM | TGI (DU-145 prostate): > 100 µM | TGI (TK-10 renal): > 100 µM | TGI (UACC-62 melanoma): > 100 µM | TGI (HCT-116 colon): > 100 µM | TGI (SK-MEL-28 melanoma): > 100 µM | TGI (PC-3 prostate): > 100 µM | TGI (NCI-H23 lung): > 100 µM | TGI (U251 CNS): > 100 µM | TGI (CAKI-1 renal): > 100 µM | TGI (SR leukemia): > 100 µM | TGI (IGROV1 ovarian): > 100 µM | TGI (SF-539 CNS): > 100 µM | TGI (M14 melanoma): > 100 µM | TGI (RXF 393 renal): > 100 µM | TGI (LOX IMVI melanoma): > 100 µM | TGI (MCF7 breast): > 100 µM | TGI (EKVX NSCLC): > 100 µM | TGI (OVCAR-5 ovarian): > 100 µM | TGI (ACHN renal): > 100 µM | TGI (SK-MEL-5 melanoma): > 100 µM | TGI (CCRF-CEM leukemia): > 100 µM | TGI (HL-60(TB) leukemia): > 100 µM | TGI (UO-31 renal): > 100 µM | TGI (786-0 renal): > 100 µM | TGI (SK-OV-3 ovarian): > 100 µM | TGI (OVCAR-3 ovarian): > 100 µM | TGI (SW-620 colon): > 100 µM | TGI (MALME-3M melanoma): > 100 µM
